# AlphaSeq binding of Ab-91 heavy chain variants to a spike HR2 peptide

The measurements come from Engelhart et al. 2022 (doi:10.1038/s41597-022-01779-4) through the FLAb antibody collection.

Antigen: PDVDLGDISGINAS, a 14-residue peptide of the SARS-CoV-2 spike HR2 region.

The variants keep the light chain, the linker and the frameworks of Ab-91 (scFv order VL, a 15-residue (Gly4Ser)3 linker, VH).
VL: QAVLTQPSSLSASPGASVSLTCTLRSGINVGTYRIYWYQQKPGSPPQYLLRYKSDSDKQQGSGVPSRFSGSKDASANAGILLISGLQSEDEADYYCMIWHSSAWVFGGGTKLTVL
VH: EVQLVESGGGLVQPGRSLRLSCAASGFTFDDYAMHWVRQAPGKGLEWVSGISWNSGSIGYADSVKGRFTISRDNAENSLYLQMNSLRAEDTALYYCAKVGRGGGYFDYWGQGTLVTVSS

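Phage display of a naive human antibody library on the peptide gave the parent. The library (AAYL51) carries one to three amino acid substitutions per variant, with no insertions or deletions. The scFvs were displayed on barcoded MATa yeast, the peptide on MATalpha yeast. Binding brings cells together so that they mate, and sequencing counts the barcode pairs among the diploids. Each replicate has its own calibration line, from reference interactions of the BCL2 family. Each pool was mated in three replicate cultures.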

Positions count from residue 1 of the parent VH; V64E puts E in place of V.
Every variant below is changed at V64 of the VH (sequential numbering).
Values are apparent Kd, the geometric mean of the replicates that gave a signal; lower means stronger binding.
Where no diploid with the target was found in any replicate, the entry reads "nd": below detection, most likely a poor binder, though not proof of it.
As a blank, each scFv also met three strains without target: over library AAYL51, 21% of these pairings were detected, typically at 34 µM and seldom below 1.8 µM. For each scFv, signals with the empty controls are counted beside the result.

For V64E G102S Y105M, the assay gave 1.0 µM (1 of 3 replicates; controls 1 of 9).
For A33E I58K V64M, the assay gave nd (0 of 3 replicates; controls 0 of 9).
For V64G G100V F106H, the assay gave 21 µM (1 of 3 replicates; controls 0 of 9).
For S52V D62R V64G, the assay gave 4.0 µM (1 of 3 replicates; controls 1 of 9).
For N54S S63G V64I, the assay gave nd (0 of 3 replicates; controls 0 of 9).
For Y32A W53D V64K, the assay gave 15 µM (1 of 3 replicates; controls 2 of 9).
For I51P V64Q F106V, the assay gave nd (0 of 3 replicates; controls 0 of 9).
For V64W G102Q G103M, the assay gave nd (0 of 3 replicates; controls 1 of 9).
For S57I V64H, the assay gave 32 µM (3 of 3 replicates; controls 7 of 9).
For V64W G100I, the assay gave 12 µM (3 of 3 replicates; controls 5 of 9).
For V64I, the assay gave nd (0 of 3 replicates; controls 1 of 9).
For W53K N54W V64R, the assay gave nd (0 of 3 replicates; controls 2 of 9).
For Y32T V64S G102S, the assay gave 160 µM (3 of 3 replicates; controls 2 of 9).
For F29A V64F, the assay gave nd (0 of 3 replicates; controls 0 of 9).
For D31S V64L G104V, the assay gave nd (0 of 3 replicates; controls 0 of 9).
For S55I I58N V64F, the assay gave nd (0 of 3 replicates; controls 2 of 9).
For S63F V64G Y105K, the assay gave 4.1 µM (1 of 3 replicates; controls 2 of 9).
For A61V V64E G103Y, the assay gave nd (0 of 3 replicates; controls 0 of 9).
For G26V D30W V64A, the assay gave 2.2 µM (1 of 3 replicates; controls 3 of 9).
For V64S G104W Y105M, the assay gave 48 µM (1 of 3 replicates; controls 3 of 9).
For V64E, the assay gave 83 µM (2 of 3 replicates; controls 7 of 9).
For G56K V64K, the assay gave nd (0 of 3 replicates; controls 1 of 9).
For D31Q V64P G102E, the assay gave nd (0 of 3 replicates; controls 1 of 9).
For I51C V64G D107C, the assay gave nd (0 of 3 replicates; controls 1 of 9).
For T28K S52C V64K, the assay gave 100 µM (3 of 3 replicates; controls 9 of 9).
For S57I V64M G103T, the assay gave nd (0 of 3 replicates; controls 0 of 9).
For D30E V64A, the assay gave 19 nM (3 of 3 replicates; controls 1 of 9).
For Y32K G50I V64L, the assay gave 91 µM (1 of 3 replicates; controls 3 of 9).
For G26F V64M G102T, the assay gave nd (0 of 3 replicates; controls 0 of 9).
For I58N S63A V64M, the assay gave nd (0 of 3 replicates; controls 1 of 9).
For G56W V64Y G103D, the assay gave 45 µM (2 of 3 replicates; controls 2 of 9).
For Y32M I58L V64M, the assay gave 710 nM (3 of 3 replicates; controls 1 of 9).
For F29M G50Q V64C, the assay gave nd (0 of 3 replicates; controls 1 of 9).
For F27P I58A V64P, the assay gave 130 µM (1 of 3 replicates; controls 2 of 9).
For I58P V64G G102W, the assay gave nd (0 of 3 replicates; controls 0 of 9).
For T28Y S55V V64C, the assay gave nd (0 of 3 replicates; controls 1 of 9).
For A33G V64M Y108Q, the assay gave 7.8 µM (1 of 3 replicates; controls 2 of 9).
For W53Y S63R V64S, the assay gave 360 nM (3 of 3 replicates; controls 0 of 9).
For D30E M34E V64G, the assay gave nd (0 of 3 replicates; controls 0 of 9).
For F29T S63V V64H, the assay gave nd (0 of 3 replicates; controls 2 of 9).
For S63V V64G Y105P, the assay gave 23 µM (1 of 3 replicates; controls 6 of 9).
For T28Y V64K Y105R, the assay gave nd (0 of 3 replicates; controls 0 of 9).
For V64R Y108K, the assay gave 58 µM (1 of 3 replicates; controls 1 of 9).
For G26E A61E V64Y, the assay gave nd (0 of 3 replicates; controls 0 of 9).
For N54E V64Y D107V, the assay gave nd (0 of 3 replicates; controls 0 of 9).
For I58K Y60M V64K, the assay gave 31 µM (1 of 3 replicates; controls 2 of 9).
For G50H V64R Y108S, the assay gave nd (0 of 3 replicates; controls 0 of 9).
For G26D I58S V64F, the assay gave 20 µM (3 of 3 replicates; controls 4 of 9).
For M34I S63A V64I, the assay gave 1.4 nM (3 of 3 replicates; controls 1 of 9).
For V64P K65E G102N, the assay gave 20 µM (3 of 3 replicates; controls 2 of 9).

A selection of 3 entries from above:

The variant Y32A W53D V64K showed 15 µM (1 of 3 replicates; controls 2 of 9).
The variant V64S G104W Y105M showed 48 µM (1 of 3 replicates; controls 3 of 9).
The variant G26F V64M G102T showed nd (0 of 3 replicates; controls 0 of 9).

Parent in this assay: reference entry 72 nM, copy in this library 7.5 nM.